# Experiments:
# [1] = test system: immobility in tail suspension test; experiment: Tail suspension test (TST) in socially isolated (SI) mice; details: i.p. once a day for two weeks, relative to control group-housed mice (1±0.1), mean±SEM
# [2] = test system: CD45^high cells in brain compartment; experiment: CD45^high cells in brain compartment of socially isolated (SI) mice, FACS; format: in vivo; details: i.p. once a day for 14 days, FLX 10 mg/kg, relative to control group-housed mice (1±0.07), SI saline 0.6±0.1, mean±SEM
# Description: Mice: Adult (8-12 weeks of age; 20-25 g) males and females, SERT-Cre mice (B6.FVB(Cg)-Tg(Slc6a4-cre)ET33Gsat/Mmucd, (MMRRC, stock #031028-UCD), were used for the chemogenetic experiments. Adult C57Bl/6JOlaHsd mice (Envigo) and BALB/cOlaHsd (Envigo) were used for the characterization of the immune cells in the pineal gland, agonist, and social isolation experiments. Mice were maintained under specific-pathogen-free (SPF) conditions on a 12 h light:12 h dark cycle (lights on at 07:00) with food and water ad libitum. All experiments were performed in accordance with the National Institutes of Health Guidelines for the Care and Use of Laboratory Animals (Garber et al., 2011). All procedures and protocols were approved by the Technion Administrative Panel of Laboratory Animal Care. Throughout the experiments, mice were randomly assigned to experimental groups.
# Flow cytometry and CyTOF mass cytometer: Mice were euthanized and transcardially perfused with 20 mL PBS (without Ca^2+/Mg^2+). The brains were separated from the meninges and dissected. […]
# For viability staining, cells (10^6) were washed once with PBS, resuspended in Zombie NIR™ dye solution (1:1000, Biolegend, 423106) and incubated in the dark for 15 min at RT. […] Samples were analyzed using a CytoFLEX cell analyzer and FlowJo software. […]
smiles,measurement,setting,value
CNCCC(Oc1ccc(C(F)(F)F)cc1)c1ccccc1 (centres unmarked) [FLX],Fold change of immobility in tail suspension test (TST),[1],0.99±0.2 fold
same,Fold increase of CD45^high cells in brain compartment,[2],1±0.06 fold

# — patent publication US20250114351A1, “5-HT2C RECEPTOR MODULATING AGENTS FOR THE TREATMENT OF NEURODEGENERATIVE, MENTAL, COGNITIVE AND AUTOIMMUNE CNS DISORDERS” (priority 2022, published 2025)
